# Results reported in patent US8772480B2, “Inhibitors of PI3 kinase and/or mTOR” (priority 2009, dated 2014).
# Biological target: mammalian target of rapamycin (mTOR) (Homo sapiens (Human), UniProt P42345)
# Settings: read-out: mTOR IC50
row,SMILES,IC50 [nM]
1,"Cc1nc(N)nc(-c2cc(C3CCOCC3)cnc2Nc2cnc(Cl)c(NS(C)(=O)=O)c2)n1 [Example 328, N-(5-(3-(4-Amino-6-Methyl-1,3,5-Triazin-2-yl)-5-(Tetrahydro-2H-Pyran-4-yl)Pyridin-2-Ylamino)-2-Chloropyridin-3-yl)Methanesulfonamide]",26
2,"COc1ncc(Nc2ncc(Cl)cc2-c2nc(C)nc(N)n2)cc1NS(C)(=O)=O [Example 329, N-(5-(3-(4-Amino-6-Methyl-1,3,5-Triazin-2-yl)-5-Chloropyridin-2-Ylamino)-2-Methoxypyridin-3-yl)Methanesulfonamide]",> 10000
3,"COc1cnc(Nc2cnc(Cl)c(NS(=O)(=O)N(C)C)c2)c(-c2nc(C)nc(N)n2)c1 [Example 331, N′-(5-((3-(4-Amino-6-Methyl-1,3,5-Triazin-2-yl)-5-Methoxy-2-Pyridinyl)Amino)-2-Chloro-3-Pyridinyl)-N,N-Dimethylsulfamide]",64
4,"Cc1nc(N)nc(-c2cc(CN3CCOCC3)cnc2Nc2cnc(Cl)c(NS(C)(=O)=O)c2)n1 [Example 332, N-(5-(3-(4-Amino-6-Methyl-1,3,5-Triazin-2-yl)-5-(Morpholinomethyl)Pyridin-2-Ylamino)-2-Chloropyridin-3-yl)Methanesulfonamide]",154
5,"COCCOc1cnc(Nc2cnc(Cl)c(NS(C)(=O)=O)c2)c(-c2nc(C)nc(N)n2)c1 [Example 335, N-(5-(3-(4-Amino-6-Methyl-1,3,5-Triazin-2-yl)-5-(2-Methoxyethoxy)Pyridin-2-Ylamino)-2-Chloropyridin-3-yl)Methanesulfonamide]",51
6,"COCCOc1cnc(Nc2cnc(OC)c(NS(C)(=O)=O)c2)c(-c2nc(C)nc(N)n2)c1 [Example 336, N-(5-(3-(4-Amino-6-Methyl-1,3,5-Triazin-2-yl)-5-(2-Methoxyethoxy)Pyridin-2-Ylamino)-2-Methoxypyridin-3-yl)Methanesulfonamide]",1420
7,"COc1ncc(Nc2ncc(CN3CCOCC3)cc2-c2nc(C)nc(N)n2)cc1NS(C)(=O)=O [Example 337, N-(5-(3-(4-Amino-6-Methyl-1,3,5-Triazin-2-yl)-5-(Morpholinomethyl)Pyridin-2-Ylamino)-2-Methoxypyridin-3-yl)Methanesulfonamide]",> 10000
8,"Cc1nc(-c2cccnc2Nc2cnc(Cl)c(NS(C)(=O)=O)c2)c2nc[nH]c2n1 [Example 338, N-(2-Chloro-5-(3-(2-Methyl-9H-Purin-6-yl)Pyridin-2-Ylamino)Pyridin-3-yl)Methanesulfonamide]",17
9,"Cc1nc(-c2cc(C(C)N3CCOCC3)cnc2Nc2cnc(Cl)c(NS(C)(=O)=O)c2)c2nc[nH]c2n1 (centres unmarked) [Example 339, N-(2-Chloro-5-(3-(2-Methyl-9H-Purin-6-yl)-5-(1-Morpholinoethyl)Pyridin-2-Ylamino)Pyridin-3-yl)Methanesulfonamide]",46
10,"Cc1nc(-c2cc(C(C)N3CCOCC3)cnc2Nc2cnc(Cl)c(NS(=O)(=O)N(C)C)c2)c2nc[nH]c2n1 (centres unmarked) [Example 340, N′-(2-Chloro-5-((3-(2-Methyl-9H-Purin-6-yl)-5-(1-(4-Morpholinyl)Ethyl)-2-Pyridinyl)Amino)-3-Pyridinyl)-N,N-Dimethylsulfamide]",81
11,"COc1cc(Nc2ncc([C@@H](C)N3CCN(S(C)(=O)=O)CC3)cc2-c2nc(C)nc(N)n2)cnc1Cl [Example 341, (R)-4-(2-(6-Chloro-5-Methoxypyridin-3-Ylamino)-5-(1-(4-(Methylsulfonyl)Piperazin-1-yl)Ethyl)Pyridin-3-yl)-6-Methyl-1,3,5-Triazin-2-Amine]",> 10000
12,"COc1cc(Nc2ncc(C(C)(C)O)cc2-c2nc(C)nc(N)n2)cnc1Cl [Example 342, 2-(5-(4-Amino-6-Methyl-1,3,5-Triazin-2-yl)-6-(6-Chloro-5-Methoxypyridin-3-Ylamino)Pyridin-3-yl)Propan-2-ol]",474
13,"COc1ncc(Nc2ncc(C3=CCOCC3)cc2-c2nc(C)nc(N)n2)cc1F [Example 343, 4-(5-(3,6-Dihydro-2H-Pyran-4-yl)-2-(5-Fluoro-6-Methoxypyridin-3-Ylamino)Pyridin-3-yl)-6-Methyl-1,3,5-Triazin-2-Amine]",> 10000
14,"COc1ncc(Nc2ncc(C3CCOCC3)cc2-c2nc(C)nc(N)n2)cc1F [Example 344, 4-(2-(5-Fluoro-6-Methoxypyridin-3-Ylamino)-5-(Tetrahydro-2H-Pyran-4-yl)Pyridin-3-yl)-6-Methyl-1,3,5-Triazin-2-Amine]",> 10000
15,"COc1ncc(Nc2ncc(C(C)(C)O)cc2-c2cc(N)nc(C)n2)cc1F [Example 345, 2-(5-(6-Amino-2-Methylpyrimidin-4-yl)-6-(5-Fluoro-6-Methoxypyridin-3-Ylamino)Pyridin-3-yl)Propan-2-ol]",> 10000
16,"COc1ncc(Nc2ncc(C(C)(C)C(=O)O)cc2-c2nc(C)nc(N)n2)cc1F [Example 346, 2-(5-(4-Amino-6-Methyl-1,3,5-Triazin-2-yl)-6-(5-Fluoro-6-Methoxypyridin-3-Ylamino)Pyridin-3-yl)-2-Methylpropanoic Acid]",> 10000

row,SMILES,IC50 [nM]
1,"COc1ncc(Nc2ncc(C(O)C(C)(C)O)cc2-c2nc(C)nc(N)n2)cc1F (centres unmarked) [Example 347, 1-(5-(4-Amino-6-Methyl-1,3,5-Triazin-2-yl)-6-(5-Fluoro-6-Methoxypyridin-3-Ylamino)Pyridin-3-yl)-2-Methylpropane-1,2-Diol]",> 10000
2,"COc1ncc(Nc2ncc(C(C)(C)O)cc2-c2nc(C)nc(N)n2)cc1C(F)(F)F [Example 348, 2-(5-(4-Amino-6-Methyl-1,3,5-Triazin-2-yl)-6-(6-Methoxy-5-(Trifluoromethyl)Pyridin-3-Ylamino)Pyridin-3-yl)Propan-2-ol]",> 10000
3,"COc1ncc(Nc2ncc(C(C)O)cc2-c2nc(C)nc(N)n2)cc1F (centres unmarked) [Example 349, 1-(5-(4-Amino-6-Methyl-1,3,5-Triazin-2-yl)-6-(5-Fluoro-6-Methoxypyridin-3-Ylamino)Pyridin-3-yl)Ethanol]",> 10000
4,"COc1cc(Nc2ncc(C(C)(C)O)cc2-c2nc(C)nc(N)n2)cnc1OC [Example 350, 2-(5-(4-Amino-6-Methyl-1,3,5-Triazin-2-yl)-6-(5,6-Dimethoxypyridin-3-Ylamino)Pyridin-3-yl)Propan-2-ol]",5490
5,"COc1ncc(Nc2ncc(C(OC(=O)c3cccc(Cl)c3)C(C)(C)O)cc2-c2nc(C)nc(N)n2)cc1F (centres unmarked) [Example 351, 1-(5-(4-Amino-6-Methyl-1,3,5-Triazin-2-yl)-6-(5-Fluoro-6-Methoxypyridin-3-Ylamino)Pyridin-3-yl)-2-Hydroxy-2-Methylpropyl 3-Chlorobenzoate]",> 10000
6,"Cc1nc(N)nc(-c2cc(C(C)(C)O)cnc2Nc2cncc(F)c2)n1 [Example 352, 2-(5-(4-Amino-6-Methyl-1,3,5-Triazin-2-yl)-6-(5-Fluoropyridin-3-Ylamino)Pyridin-3-yl)Propan-2-ol]",2540
7,"COc1cncc(Nc2ncc(C(C)(C)O)cc2-c2nc(C)nc(N)n2)c1 [Example 353, 2-(5-(4-Amino-6-Methyl-1,3,5-Triazin-2-yl)-6-(5-Methoxypyridin-3-Ylamino)Pyridin-3-yl)Propan-2-ol]",2120
8,"COc1ncc(Nc2ncc(C(C)(C)O)cc2-c2nc(C)nc(N)n2)cc1C [Example 354, 2-(5-(4-Amino-6-Methyl-1,3,5-Triazin-2-yl)-6-(6-Methoxy-5-Methylpyridin-3-Ylamino)Pyridin-3-yl)Propan-2-ol]",6000
9,"Cc1nc(N)nc(-c2cc(C(C)(C)O)cnc2Nc2cncc(S(C)(=O)=O)c2)n1 [Example 355, 2-(5-(4-Amino-6-Methyl-1,3,5-Triazin-2-yl)-6-(5-(Methylsulfonyl)Pyridin-3-Ylamino)Pyridin-3-yl)Propan-2-ol]",> 10000
10,"Cc1nc(N)nc(-c2cc(C(C)(C)O)cnc2Nc2cncc(S(=O)(=O)c3ccccc3)c2)n1 [Example 356, 2-(5-(4-Amino-6-Methyl-1,3,5-Triazin-2-yl)-6-(5-(Phenylsulfonyl)Pyridin-3-Ylamino)Pyridin-3-yl)Propan-2-ol]",7120
11,"COc1ncc(Nc2ncc(CN3CCN(C(=O)N(C)C(C)C)CC3)cc2-c2nc(C)nc(N)n2)cc1F [Example 357, 4-((5-(4-Amino-6-Methyl-1,3,5-Triazin-2-yl)-6-(5-Fluoro-6-Methoxypyridin-3-Ylamino)Pyridin-3-yl)Methyl)-N-Isopropyl-N-Methylpiperazine-1-Carboxamide]",> 10000
12,"COc1ncc(Nc2ncc([C@@H](C)N3CCN(S(C)(=O)=O)C[C@@H]3C)cc2-c2nc(C)nc(N)n2)cn1 [Example 362, 4-(2-(2-Methoxypyrimidin-5-Ylamino)-5-((R)-1-((S)-2-Methyl-4-(Methylsulfonyl)Piperazin-1-yl)Ethyl)Pyridin-3-yl)-6-Methyl-1,3,5-Triazin-2-Amine]",1210
13,"Cc1nc(N)nc(-c2cc([C@@H](C)N3CCN(S(C)(=O)=O)C[C@@H]3C)cnc2Nc2ccc(Cl)nc2)n1 [Example 363, 4-(2-(6-Chloropyridin-3-Ylamino)-5-((R)-1-((S)-2-Methyl-4-(Methylsulfonyl)Piperazin-1-yl)Ethyl)Pyridin-3-yl)-6-Methyl-1,3,5-Triazin-2-Amine]",> 10000
14,"COc1ncc(Nc2ncc(CN3CCN(S(C)(=O)=O)[C@H](C)C3)cc2-c2nc(C)nc(N)n2)cc1F [Example 364, (R)-4-(2-(5-Fluoro-6-Methoxypyridin-3-Ylamino)-5-((3-Methyl-4-(Methylsulfonyl)Piperazin-1-yl)Methyl)Pyridin-3-yl)-6-Methyl-1,3,5-Triazin-2-Amine]",> 10000
15,"COc1cnc(Nc2cnc(Cl)c(N)c2)c(-c2nc(C)nc(N)n2)c1 [Example 368, N5-(3-(4-Amino-6-Methyl-1,3,5-Triazin-2-yl)-5-Methoxypyridin-2-yl)-2-Chloropyridine-3,5-Diamine]",262
16,"Cc1nc(N)nc(-c2cc(C(C)N3CCOCC3)cnc2Nc2cnc(Cl)c(NS(C)(=O)=O)c2)n1 (centres unmarked) [Example 369, N-(5-(3-(4-Amino-6-Methyl-1,3,5-Triazin-2-yl)-5-(1-Morpholinoethyl)Pyridin-2-Ylamino)-2-Chloropyridin-3-yl)Methanesulfonamide]",472
